Values of other authors, collected in US20120202756A1, “USE OF PRODRUGS TO AVOID GI MEDIATED ADVERSE EVENTS” (priority 2009, published 2012).

Test system: dog oesophagus
Settings: perfusion of the dog oesophagus; cited from earlier work

In the case of `NCCCC(O)(P(=O)(O)O)P(=O)(O)O` [alendronate], the oesophageal damage is listed as “marked oesophageal damage”.
